# Reference: patent US20250205244A1, “METHODS OF TREATING MIGRAINE WITH MNK INHIBITORS” (4E Therapeutics, Inc., priority 2021, published 2025)
# Like-named read-outs stand apart in the source and are kept apart here.
# Experiments:
# WT mice, dural IL-6 = test: Dural IL-6-induced acute facial hypersensitivity and grimace in mice; conditions: female and male WT mice; 10 mg/kg oral gavage prior to dural IL-6 (0.1 ng); compared to the vehicle group
# [1] = system: eIF4E phosphorylation at Serine 209 in the human embryonic kidney (HEK) 293 cell line; test: Inhibition of eIF4E phosphorylation in HEK293 cells (phospho-specific antibody, fluorescent plate reader); conditions: read-out: HEK 293 cell IC50, eIF4E phosphorylation at Serine 209, HEK293 cells, 2 hours exposure
structure (smiles),measurement,setting,value
"Cc1cc(Nc2cc(N)ncn2)c(=O)n2c1C(=O)NC21CCCC2(CC2)CC1 (single isomer, unassigned)",dural IL-6 induced facial grimace measures (grimace score),"WT mice, dural IL-6",significantly attenuated
same,IC50,[1],25.4 nM
same,IC50,[1]; listed as Enatiomer 1 of 4ET-01-027,11.6 nM
